Data reported in ChEMBL document CHEMBL2176927, “Potent, selective, and orally bioavailable inhibitors of the mammalian target of rapamycin kinase domain exhibiting single agent antiproliferative activity” (J Med Chem, 2012).

Test: Selectivity ratio of Ki for PI3Kdelta to Ki for mTOR

`CCNC(=O)Nc1ccc(-c2nc3c(c(N4CCOCC4)n2)CCN(c2ncccn2)C3)cc1` showed a Ratio Ki of 130.
